Laboratory results reported in patent publication EP4837907A1, “NOVEL COMPOUND USED AS CBP/P300 INHIBITOR, AND PHARMACEUTICAL COMPOSITION FOR PREVENTING OR TREATING CANCER, INFLAMMATORY DISORDERS, OR AUTOIMMUNE DISEASES COMPRISING SAME AS ACTIVE INGREDIENT” (dated 2026).

The chains behind the UniProt entries cited, without tags or fusion partners. Residues count along the entry.
UniProt Q92793, 1085-1192 limits assumed: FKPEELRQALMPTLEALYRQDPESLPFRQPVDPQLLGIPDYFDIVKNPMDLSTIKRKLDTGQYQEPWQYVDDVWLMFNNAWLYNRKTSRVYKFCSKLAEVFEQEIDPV

Columns and labels:
[1] = target: BRD4 (BD1) protein (Homo sapiens, UniProt O60885); experiment: BRD4 inhibitory activity, TR-FRET assay of the BRD4 bromodomain; conditions: read-out: BRD4 (BD1) IC50, BRD4 (BD1) protein 7.5 nM, Ac-H4 peptide 15 nM, room temperature 2 hours
Description: BRD4 inhibitory activity was measured using a time resolved fluorescence resonance energy transfer (TR-FRET) experiment to verify the activity of BRD4 bromodomain.
(§1) The assay was performed in a final volume of 14 µl, optimized based on a CREBBP time resolved fluorescence resonance energy transfer (TR-FRET) assay kit (BPS Bioscience, cat. 32613) to maximize an assay window, and performed in a final volume of 14 µl, while maximizing the assay window. A TR-FRET fluorescence acceptor and a Tb donor were diluted in an assay buffer containing 2-[4-(2-hydroxyethyl)piperazin-1-yl]ethanesulfonic acid (hereafter, referred to as an assay buffer, BPS Bioscience, cat. 33012), and 3 µl of each solution was transferred to all wells of a white 384-low-volume well plate (Corning, cat. 4513). 2 µl of 4X Ac-H4 peptide (final concentration 15 nM) was transferred to high control wells and test wells. Each compound was prepared at 10 concentration points by serially diluting 3-fold from the highest concentration in a dimethyl sulfoxide solvent. The compound at each concentration was then diluted in the assay buffer to prepare a diluted compound solution that was 4-fold more concentrated than the final concentration. 2 µl of each compound or dimethyl sulfoxide prepared in this way was distributed into an assay plate so that the final test concentration was a minimum of 0.5 µM to a maximum of 10 µM (final DMSO concentration 1%). 6 µL of 1X assay buffer was added to low control wells and 2 µl was added to high control and test wells. Then, 2 µl of 4X BRD4 (BD1) protein (final concentration 7.5 nM, BPS bioscience, cat 31040) was added to initiate a PPI reaction. The plate was reacted at room temperature for 2 hours before measuring the signal. The TR-FRET signal was measured using an EnVision Multilabel plate reader (PerkinElmer; Mirror LNACE/DELFIA Dual/Bias). For data analysis, the values of each well were obtained using the TR-FRET ratio ((Signal 665 nm/Signal 615 nm) × 20000). Data analysis was performed using the TR-FRET ratio ((Signal 665 nm/Signal 615 nm) × 20000). Data were reported as percent inhibition compared to control wells based on the following equation: %Activity = ((FRETcompound - FRETLow av)/(FRETHigh av - FRETLow av)) × 100. IC50 analysis was determined by standard 4 parameter curve fitting according to an algorithm using GraphPad Prism 7.0 (GraphPad Software Inc., La Jolla, CA, USA). All data are expressed as mean ± standard error of the mean (SEM).

[2] = target: CBP BRD protein (Homo sapiens, UniProt Q92793); experiment: CBP inhibitory activity, TR-FRET assay of the CBP bromodomain; conditions: read-out: CBP BRD IC50, CBP BRD protein 7.5 nM, Ac-H4 peptide 85 nM, room temperature 2 hours
Description: A time resolved fluorescence resonance energy transfer (TR-FRET) experiment was used to verify the activity of CBP bromodomain.
as §1, with “Bioscience, cat. 32619) to maximize” for “Bioscience, cat. 32613) to maximize”, “(final concentration 85 nM) was” for “(final concentration 15 nM) was”, “µM (final dimethyl sulfoxide concentration 1%).” for “µM (final DMSO concentration 1%).”, “of 4X CBP BRD protein (final” for “of 4X BRD4 (BD1) protein (final”, “bioscience, cat 31128) was added” for “bioscience, cat 31040) was added”, “obtained using a TR-FRET ratio” for “obtained using the TR-FRET ratio”

In the case of `CNS(=O)(=O)c1ccc2nc(-c3cccn3Cc3cccc(F)c3)n(-c3ccc4c(c3)n(C)c(=O)n4C)c2c1`, the IC50 [1] is reported as 0.5 to 5 µM and the IC50 [2] is reported as greater than 5 µM.

In the case of `Cc1ccc2c(-c3nc4c(N(C)CC5CCN(C6CCCCC6)C5)ncnc4n3-c3ccc4c(c3)n(C)c(=O)n4C)c[nH]c2c1` (centres unmarked), the IC50 [1] is reported as 0.5 to 5 µM and the IC50 [2] is reported as less than 0.5 µM.

In the case of `CNS(=O)(=O)c1ccc2nc(-c3c[nH]c4cc(C)ccc34)n(-c3cccc(N(C)C(=O)N(C)C)c3)c2c1`, the IC50 [1] is reported as greater than 5 µM and the IC50 [2] is reported as greater than 5 µM.

For `Cc1ccc2c(-c3nc4ccncc4n3-c3ccc4c(c3)n(C)c(=O)n4C)c[nH]c2c1`, the IC50 [1] was greater than 5 µM and the IC50 [2] was 0.5 to 5 µM.

`CNC(=O)c1c[nH]c2ccc(-n3c(-c4c[nH]c5cc(C)ccc45)nc4ccc(S(=O)(=O)NC)cc43)cc12` showed an IC50 [1] greater than 5 µM and an IC50 [2] greater than 5 µM.

`CNS(=O)(=O)c1ccc2nc(-c3ccn(Cc4ccccc4)c3)n(-c3ccc4c(c3)n(C)c(=O)n4C)c2c1` was tested, and the IC50 [1] was greater than 5 µM and the IC50 [2] was greater than 5 µM.

Compound `CNS(=O)(=O)c1ccc2nc(-c3cccn3CC3CC3)n(-c3ccc4c(c3)n(C)c(=O)n4C)c2c1` has an IC50 [1] of 0.5 to 5 µM and an IC50 [2] of 0.5 to 5 µM.

`CCc1cccc2c(-c3nc4c(N(C)CC5CCN(C6CCCCC6)C5)ncnc4n3-c3ccc4c(c3)n(C)c(=O)n4C)c[nH]c12` (centres unmarked) gave an IC50 [1] of 0.5 to 5 µM and an IC50 [2] of less than 0.5 µM.

`Cn1c(=O)n(C)c2cc(-n3c(-c4c[nH]c5cccc(F)c45)nc4ccc(S(=O)(=O)NCCN5CCOCC5)cc43)ccc21` was tested, and the IC50 [1] was 0.5 to 5 µM and the IC50 [2] was 0.5 to 5 µM.

For `CNS(=O)(=O)c1ccc2nc(-c3ccsc3C)n(-c3ccc4c(c3)n(C)c(=O)n4C)c2c1`, the IC50 [1] was greater than 5 µM and the IC50 [2] was 0.5 to 5 µM.

Work on `CNS(=O)(=O)c1ccc2nc(-c3cccn3Cc3c(F)cccc3F)n(-c3ccc4c(c3)n(C)c(=O)n4C)c2c1` yielded an IC50 [1] greater than 5 µM and an IC50 [2] greater than 5 µM.

`CNS(=O)(=O)c1ccc2nc(-c3cccc(C)c3C)n(-c3ccc4c(c3)n(C)c(=O)n4C)c2c1` gave an IC50 [1] of 0.5 to 5 µM and an IC50 [2] of 0.5 to 5 µM.

`CNS(=O)(=O)c1ccc2nc(-c3c[nH]c4cc(C)ccc34)n(-c3cccc4c3n(C)c(=O)n4C)c2c1` was tested, and the IC50 [1] was greater than 5 µM and the IC50 [2] was greater than 5 µM.
